Test results from article PMC8381248, “Comparison of Pinoresinol and its Diglucoside on their ADME Properties and Vasorelaxant Effects on Phenylephrine-Induced Model” (Frontiers in Pharmacology, 2021).

Legend:
[1] = Metabolic stability in rat liver microsomes; settings: RLM with NADPH
Experimental: (§1) Then, this incubation plate containing mixed solution and NADPH regeneration system was agitated on a plate shaker at 100 rpm and pre-incubated at 37°C for 5 min. Subsequently, 300 μL of precooled quenching solution was added to each well of another deep-well plate (quench plate), which was cooled on ice. The solution in the incubation plate was transferred into the well of the quench plate as the samples in 0 min before it was mixed with another 20 µL of NADPH regeneration solution in the wells.
(§2) The incubation plate was incubated at 37°C for 0, 10, 30, and 90 min. At each time point, 100 μL of the supernatant in the incubation plate was removed from each well, quenched immediately, transferred to the wells of the ice-cold quench plate, and vortexed for 5 min. Additionally, an equal volume of pre-warmed fresh regeneration solution was added to the incubation plate for compensation after every withdrawal. […] Each test was operated in duplicate. The determination conditions of LC-MS/MS are shown in Support Materials (Supplementary Table S4).
(§3) The in vitro T1/2 was determined by converting the analyte/IS peak area ratios to percentage of drug remaining using the initial peak (t = 0 min) area ratio values as 100%.

[2] = Pharmacokinetic study in rat plasma after intravenous and oral administration; format: in vivo, Sprague-Dawley (SD) rats
Experimental: (§4) PDG and PINL were dissolved in a solution consisting DMSO, Solutol HS 15, and normal saline (1:3:16, v/v/v) at a concentration of 1 mg/ml (used in intravenous administration groups) and 4 mg/ml (used in oral administration groups).
(§5) Eighteen male SD rats were housed in the barrier rodent facilities to acclimatize for a week in animal quarters, which had air conditioning and an automatically controlled photoperiod of 12 h of light daily. Rats had free access to standard chow diet and water until 12 h prior to the beginning of the experiment, at which time only water was accessed freely. The rats were randomly divided into six groups, with three rats in each group. Groups 1 and 2 received PDG and PINL intravenously at a dose of 5 mg/kg by tail vein bolus injection (IV, with dose volume of 5 ml/kg) for a single-dose administration. Groups 3 and 4 were given PDG and PINL at 40 mg/kg by oral gavage administration (PO, with dose volume of 5 ml/kg) for a single dose. The rats in these groups (groups 1–4) were used to determine their plasma samples for the pharmacokinetic study of the tested drugs (PDG and PINL). Groups 5 and 6 were used to determine their urine samples for the excretion study via with tail vein bolus injection (IV, with dose volume of 5 ml/kg) of PDG and PINL.
(§6) The stock standard solutions (1.0 mg/ml) of tested drugs (PDG and PINL) and IS (diclofenac sodium for PINL urine samples and tolbutamide for other samples) were prepared by dissolving the components in DMSO and vortexing. A series of calibration standard working solutions (20.0, 10.0, 2.0, 1.0, 0.2, 0.04, and 0.02 μg/ml) was prepared freshly by diluting the stock solution stepwise using ACN-water (70:30, v/v). The quality control (QC) working solutions of PDG and PINL were diluted to the concentration of 16.0, 0.8, and 0.06 μg/ml. PINL was determined in urine samples by preparing the calibration standard working solutions (20.0, 10.0, 2.0, 1.0, 0.4, 0.2, and 0.1 μg/ml) in the same manner. The IS working solutions of 200 ng/ml of tolbutamide or 50 ng/ml of diclofenac sodium were prepared by dilution of the stock standard solution with acetonitrile solution. All the solutions were stored at 4°C and brought to room temperature before use.
(§7) For plasma samples, the calibration standards were prepared by spiking 3 μL of the appropriate standard working solutions of PDG (or PINL) to 57 μL of blank rat plasma to prepare the final plasma concentration of PDG (or PINL) ranging from 1 ng/ml to 2000 ng/ml. QC samples (3, 40, 800, and 1,600 ng/ml) were prepared separately. For PDG urine samples, the calibration standards were prepared by spiking 5 μL of the appropriate standard working solutions of PDG to 95 μL blank rat urine to prepare the final urine concentration of PDG ranging from 1 ng/ml to 2000 ng/ml. QC samples (3, 40, 800, and 1,600 ng/ml) were prepared separately. For PINL urine samples, the calibration standards were prepared by spiking 5 μL of the appropriate standard working solutions of PINL to 95 μL blank rat urine to make final urine concentration of PINL ranging from 5 ng/ml to 2000 ng/ml. QC samples (15, 30, 400, and 1,600 ng/ml) were prepared separately.
Blood samples were collected via orbital venous plexus puncture into heparinized microfuge tubes at intervals of 0, 0.083, 0.25, 0.5, 1, 2, 4, 8, 10, 24, and 30 h after administration. The plasma samples were obtained by centrifuging the blood samples at 6,000 rpm for 10 min at 4°C and storing them at −20°C until further analysis. For the plasma calibration standards, QC plasma samples, and the testing plasma samples, 40 µL of the plasma samples were extracted with 120 µL of IS working solution (tolbutamide) by vortex mixing for 1 min and at 4°C centrifugation for 10 min at 13,000 rpm. The supernatant was separated and evaporated under a gentle stream of nitrogen. The residue was reconstituted with 120 µL of 30% ACN followed by vortex mixing. Then, the solutions were centrifuged at 13,000 rpm for 10 min at 4°C. […]

[3] = Plasma protein binding rate, rapid equilibrium dialysis, human plasma; format: in vitro ADME; settings: 10 µM, 37°C, 4 h
Experimental: (§8) The plasma protein binding rate of the samples was investigated using rapid equilibrium dialysis method ([Waters et al., 2008]; [Jiang C. et al., 2019]; [Yuan et al., 2020]). In brief, the unbound drugs (or references) were separated from plasma (human and rat) in a 96-well plate with a semipermeable membrane through which only unbound drug can permeate. The equilibrium unit was sealed and incubated at 37°C in a mixer at 100 rpm for 4 h.
(§9) The drugs (PDG and PINL) and reference (diclofenac and propranolol) stock solutions (10 mM) were prepared by dissolving them in DMSO and further diluting with acetonitrile-water (70:30, v/v), yielding their respective working solution (0.1 mM). Then, 50 ng/ml of midazolam and 50 ng/ml of tolbutamide (in acetonitrile) were used as IS.
(§10) After reaching equilibrium, the concentrations of the samples in both the plasma and the buffer compartment were determined. According to the specification, the resultant supernatant was collected, properly diluted by distilled water, vortexed for 10 min, and finally analyzed using LC-MS/MS. All the samples (PDG, PINL, diclofenac, and propranolol) for detection were prepared in duplicate. […]
(§11) The concentrations of the samples were determined by internal standard methods, in which the data were acquired and analyzed by Analyst 1.6.1 software station (AB Sciex Corporation, Boston, MA, United States). […]

[4] = Urinary excretion study after intravenous administration; format: in vivo, Sprague-Dawley (SD) rats; settings: IV 5 mg/kg; for excretion amount in urine: rat
Experimental: as §4, §5, §6, §7
Urine samples were collected while the rats remained isolated in metabolic cages at intervals of 0, 2, 4, 8, 24, and 30 h after administration, and the volumes of the urine were measured. The urine samples were also stored at −20°C before tested by LC-MS/MS. […]

[5] = Plasma protein binding rate, rapid equilibrium dialysis, rat plasma; format: in vitro ADME; settings: 10 µM, 37°C, 4 h
Experimental: as §8, §9, §10, §11

[6] = Metabolic stability in human liver microsomes
Experimental: as §1, §2, §3

[7] = Kinetic solubility test in PBS; format: physicochemical; settings: PBS (100 mM, pH 7.4)
Experimental: Internal standard (IS) solutions (propranolol and tolbutamide) were dissolved by acetonitrile (50 ng/ml propranolol + 200 ng/ml tolbutamide).
The sample solutions were analyzed using LC-MS/MS. All the samples (test samples and references) for detection were prepared in duplicate. The conditions for LC-MS/MS are shown in Support Materials (Supplementary Table S1).

[8] = PAMPA, incubation 18,000 s, n = 2
Experimental: Verapamil and digoxin solutions, used as reference, prepared in the same manner as the test drugs. Tolbutamide dissolved with acetonitrile (200 ng/ml) was used as IS.
The resultant supernatants were determined by LC-MS/MS. The specific assay conditions are shown in Support Materials (Supplementary Table S2).

[9] = 0.5 mg/ml microsomal protein, n = 2
[10] = HLM with NADPH, 0.5 mg/ml microsomal protein, n = 2

Substance: Pinoresinol [PINL]
- CLint [1, 9]: 9.3 µL/min/mg
- T1/2 [1, 9]: 2.495 h
- t1/2 ([1]; min value expressed in h): 2.5 h
- AUCINF_pred ([2]; IV 5 mg/kg, n = 3): 825.0 ± 54.1 ng·h/mL
- AUClast ([2]; IV 5 mg/kg, n = 3): 805.0 ± 35.2 ng·h/mL
- Cl_pred ([2]; IV 5 mg/kg, n = 3): 101 ± 6.67 mL/min/kg
- HL_Lambda_z ([2]; IV 5 mg/kg, n = 3): 0.34 ± 0.35 h
- MRTINF_pred ([2]; IV 5 mg/kg, n = 3): 0.26 ± 0.18 h
- Tmax ([2]; IV 5 mg/kg, n = 3): 0.08 ± 0.00 h
- Vz_pred ([2]; IV 5 mg/kg, n = 3): 2.83 ± 2.81 L/kg
- Cmax ([2]; IV 5 mg/kg, n = 3, 5 mg/kg): 2,538.8 ng/ml and 2,538.77 ± 217.7 ng/ml
- Cmax ([2]; IV 5 mg/kg, ng/ml value expressed in molar units): 7.10 nM
- AUCINF_pred ([2]; PO 40 mg/kg, n = 3): 332.4 ± 192.1 ng·h/mL
- AUClast ([2]; PO 40 mg/kg, n = 3): 317.0 ± 192.0 ng·h/mL
- Cl_pred ([2]; PO 40 mg/kg, n = 3): 2518 ± 1400 mL/min/kg
- Cmax ([2]; PO 40 mg/kg, n = 3): 113.1 ± 35.3 ng/mL
- MRTINF_pred ([2]; PO 40 mg/kg, n = 3): 3.83 ± 1.66 h
- Tmax ([2]; PO 40 mg/kg, n = 3): 0.33 ± 0.14 h
- Vz_pred ([2]; PO 40 mg/kg, n = 3): 789.0 ± 608.7 L/kg
- HL_Lambda_z ([2]; PO 40 mg/kg, n = 3, 40 mg/kg): 3.57 h and 3.57 ± 2.87 h
- Cmax ([2]; PO 40 mg/kg, ng/ml value expressed in molar units): 0.317 nM
- average plasma protein binding rate [3]: 89.03%
- cumulative urinary excretion, % of the dose ([4]; rat urine, for 30 h): 0.60%
- Cumulative Excretion Amount ([4]; rat urine, within 30 h, n = 3): 5,993.1 ± 3,046.5 ng
- excretion amount in urine ([4]; 0–2 h, n = 3): 5,440.0 ± 3,011.9 ng
- excretion amount in urine ([4]; 2–4 h, n = 3): 201.7 ± 203.0 ng
- excretion amount in urine ([4]; 4–8 h, n = 3): 351.4 ± 565.5 ng
- average plasma protein binding rate [5]: 57.74%
- CLint [6, 10]: 0.9 µL/min/mg
- T1/2 [6, 10]: 1,509.5 min
- t1/2 ([6]; HLM with NADPH, min value expressed in h): 25.2 h
- remaining amount ([6]; HLM, incubation time 90 min): 90.1 ± 6.2%
- kinetic solubility [7]: 85.87 ± 3.84 µg/mL
- Peff [8]: 176.84 cm/s, ×10^–7

Where “and” joins values, the source holds several entries; their conditions need not be identical. Equal values may be shown once.
